Most compounds without a hit are left out; they make up all but 2.8% or so of the library.
Yeast UUG start: modulators of yeast start codon fidelity, primary screen, whole organism, S. cerevisiae, single point, plate reader. S. cerevisiae UUG-firefly luciferase reporter, luminescence/redox ratio. activity score, % at 18.7 µM. actives 0.13% (n = 350,000);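 active = replicate mean at a twofold rise or more, about +100% in these data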;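 note: firefly luciferase made from a UUG start codon reports start codon fidelity; reporter light over untreated wells divided by growth signal over untreated wells; some hits fall short of that in this replicate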
esBAF inh: SWI/SNF esBAF complex inhibition; mouse ES cells, Bmi1-luciferase knock-in reporter, 24 h; 100% = twice the neutral-well signal; reporter increase, % at 12.5 µM; 2% of 350,000 active; in the data active means activation above about 40%; inconclusive means no clear call, values can overlap the other calls;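 further: 0% = median of the plate's neutral control wells and 100% = double that signal; a rise in the Bmi1 reporter signal indicates esBAF inhibition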
Wnt act: activates Wnt/beta-catenin signaling in a reporter cell assay | 1.2% of 300,000 active | AID 743398 | activation, % at 9.35 µM | activator, plate reader; in the data active means activation above about 30%, passing the limit was not always enough; inconclusive means no clear call, values can overlap the other calls;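 further: 0% = neutral control wells and 100% = positive control wells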
miR-122 sensor: miR-122 inhibition in Huh7 cells. activation (reporter increase), % at 12.5 µM. 0.3% of 340,000 active. Huh7 miR-122 Renilla luciferase sensor, 48 h; neutral wells = 0, positive control = 100. AID 602342;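 active means mean replicate activation score at least 90 and every replicate individually at or above 90; inconclusive means only one of the two criteria met; inactive means neither criterion met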;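 further: higher luciferase means less miR-122 activity so hits act as miR-122 inhibitors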
MITF act: increases MITF-driven TRPM1 promoter luciferase signal | activation, % at 12.5 µM | SK-MEL-5 TRPM1-promoter luciferase, 24 h; % of positive control, neutral wells = 0 | AID 588334 | 0.75% of 300,000 active;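 active means mean activation of at least 80% with every replicate also reaching 80%; inconclusive means mean reaches 80% but some replicate falls short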;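 further: 0% = neutral control wells and 100% = parthenolide positive control wells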
PglD DTNB: PglD (C. jejuni) enzyme inhibition | purified PglD enzyme, DTNB colorimetric CoA detection | inhibition, % at 12.5 µM | 0.098% of 360,000 active | AID 602405; in the data active means inhibition above about 16%, passing the limit was not always enough; inconclusive means no clear call, values can overlap the other calls
Numbers without * were called inactive; ? = inconclusive; · = no result; [ ] = another dose, or the depositor's remark.

1: CC(C)CNS(=O)(=O)c1cc(C(=O)OCC(=O)N(C)C2CCS(=O)(=O)C2)c(Cl)cc1Cl (stereo not drawn)
2: Cc1nc2ccccc2nc1-c1ccc([N+](=O)[O-])cc1
3: O=[N+]([O-])c1ccc(-c2cnc3ccccc3n2)cc1
4: COc1ccc(S(=O)(=O)Nc2ccc3c(c2)C(=O)N([C@@H](C)CO)C[C@H](C)[C@@H](CN(C)C(=O)Nc2ccc4c(c2)OCO4)O3)cc1
5: CCCC(=O)Nc1ccc2c(c1)C(=O)N(C)[C@H]1CC[C@@H](CC(=O)N3CCc4ccccc4C3)O[C@@H]1CO2

Compound	1	2	3	4	5
PglD DTNB	1.8	-3.8	-2.5	·	1.1
MITF act	-1.2	5.1	·	·	·
Wnt act	53.2*	-0.6	4.3	·	·
Yeast UUG start	-2.1	-12.1	-19.7	1.3	4.7
miR-122 sensor	0.2	·	-11.8	-5.2[16.7 µM]	12.5[16.7 µM]
esBAF inh	-8.7	12.4	55.1*	-1.3	-1.6

6: CN1c2ccc(-c3ccc(F)cc3)cc2[C@H]2[C@H](CCN2S(=O)(=O)c2cccc(F)c2)[C@H]1CO
7: CN1c2ccc(-c3ccc(F)cc3)cc2[C@@H]2[C@@H](CCN2S(=O)(=O)c2cccc(F)c2)[C@@H]1CO
8: CCS(=O)(=O)c1ccc2oc(Nc3ccccc3Cl)nc2c1
9: CCS(=O)(=O)c1ccc2oc(Nc3ccccc3Br)nc2c1
10: CNC[C@@H]1Oc2c(NC(=O)C3CCOCC3)cccc2C(=O)N([C@@H](C)CO)C[C@@H]1C

Compound	6	7	8	9	10
PglD DTNB	-1.5	0.6	-1.1	-1.7	4.4
MITF act	·	·	50.8	100.0*	·
Wnt act	·	·	25.4	36.3*	·
Yeast UUG start	2.9	1.8	-18.5	-28.9	-10.9
miR-122 sensor	143.8*[16.7 µM]	13.3[16.7 µM]	3.9	0.9	9.5[16.7 µM]
esBAF inh	-9.4	-2.1	?	·	0.2

11: COc1ccc(CCNC(=O)C2CC(c3cccc([N+](=O)[O-])c3)=NO2)cc1 (stereo not drawn)
12: Cc1ccc(CNC(=O)C2CC(c3cc(C(F)(F)F)cc(C(F)(F)F)c3)=NO2)o1 (stereo not drawn)
13: Cc1ccc(CNC(=O)C2CC(c3cccc([N+](=O)[O-])c3)=NO2)o1 (stereo not drawn)
14: COc1ccc(CCNC(=O)C2CC(c3ccc([N+](=O)[O-])cc3)=NO2)cc1 (stereo not drawn)
15: CCCCNC(=O)C1CC(c2cccc(F)c2)=NO1 (stereo not drawn)

Compound	11	12	13	14	15
PglD DTNB	2.8	1.1	2.0	-0.6	-2.8
MITF act	75.5	-14.8	55.9	·	89.5*
Wnt act	14.7	-13.0	25.8	6.9	31.9*
Yeast UUG start	6.2	-28.9	-8.7	-20.6	-14.9
miR-122 sensor	-2.6	7.3	0.9	·	2.0
esBAF inh	70.0*	-15.3	45.3*	37.4	84.8*

Individual results from the results shown.
MITF act, no. 13 is entered as 55.9
PglD DTNB, no. 15 is entered as -2.8
Yeast UUG start, no. 11 is entered as 6.2

(continued)
16: O=C(NCCc1cccs1)C1CC(c2ccc([N+](=O)[O-])cc2)=NO1 (stereo not drawn)
17: O=C(N[C@H]1CC[C@H](CCNC(=O)C2CCC2)O[C@@H]1CO)c1ccncc1
18: COc1ccc(NC(=O)Nc2ccc3c(c2)C(=O)N([C@@H](C)CO)C[C@H](C)[C@@H](CN(C)C(=O)C2CCCCC2)OCCCC[C@@H](C)O3)cc1
19: C[C@H](CO)N1C[C@H](C)[C@@H](CN(C)Cc2ccc(C(F)(F)F)cc2)Oc2ccc(NC(=O)c3ccncc3)cc2CC1=O
20: COCC(=O)N1[C@@H]2c3ccc(-c4ccccc4)c(=O)n3C[C@@H]2[C@@H](CO)[C@@H]1C(=O)Nc1ccccc1

Compound	16	17	18	19	20
PglD DTNB	4.2	-2.8	6.8	3.3	1.9
MITF act	90.5*	·	·	·	·
Wnt act	34.4*	·	·	·	·
Yeast UUG start	-17.1	-23.3	-4.1	-1.2	4.5
miR-122 sensor	-4.4	·	5.9[16.7 µM]	-0.7[16.7 µM]	12.6[16.7 µM]
esBAF inh	58.8*	-0.5	1.0	-0.5	2.3

21: Clc1ccc2nc(-c3ccc(Cl)nc3)[nH]c2c1
22: Cc1ccccc1S(=O)(=O)N(C)C[C@@H]1OCc2cn(nn2)CCCC(=O)N([C@H](C)CO)C[C@@H]1C
23: Cc1noc(C)c1CSc1nc2[nH]ncc2c(=O)n1-c1ccccc1
24: Cc1noc(C)c1CSc1nc2ccccc2c(=O)n1-c1ccccc1
25: CO[C@@H]1CN(C)C(=O)c2ccc(NS(C)(=O)=O)cc2OC[C@@H](C)N(Cc2cccnc2)C[C@H]1C

Compound	21	22	23	24	25
PglD DTNB	-2.3	2.7	1.9	-0.4	·
MITF act	41.5	·	-11.5	·	·
Wnt act	-0.7	·	·	-3.2	·
Yeast UUG start	2.2	4.9	-49.2	-11.6	-9.2
miR-122 sensor	·	1.6[16.7 µM]	23.7	98.6*	-4.8[16.7 µM]
esBAF inh	57.5*	3.2	-27.7	-10.2	5.9

26: CNC(=O)C[C@@H]1CC[C@@H]2[C@@H](COc3ccc(NC(=O)c4ccccc4F)cc3C(=O)N2C)O1
27: CC(=O)NC1C(OCc2ccccc2)OC(CO)C(OC(C)=O)C1OC(C)=O (stereo not drawn)
28: CC(=O)NC1C(OCc2cccc(Br)c2)OC(COC(C)=O)C(OC(C)=O)C1OC(C)=O (stereo not drawn)
29: C[C@@H]1CN([C@@H](C)CO)C(=O)c2cc(-c3ccccc3F)cnc2O[C@H]1CN(C)C(=O)C1CCC1
30: COc1ccc(NC(=O)N(C)C[C@@H]2OCCCC[C@@H](C)Oc3ccc(NC(=O)c4ccccc4)cc3C(=O)N([C@H](C)CO)C[C@H]2C)cc1

Compound	26	27	28	29	30
PglD DTNB	-3.1	4.8	1.4	1.9	-0.3
MITF act	·	-5.4	4.3	·	·
Wnt act	·	36.0*	0.6	·	·
Yeast UUG start	6.3	-8.9	-3.6	-5.0	-5.0
miR-122 sensor	-53.3[16.7 µM]	2.0	-0.1	-5.3[16.7 µM]	8.7[16.7 µM]
esBAF inh	2.7	·	-7.1	-1.4	7.7

31: CCC(CO)Nc1ccn2nc(-c3cccs3)cc2n1 (stereo not drawn)
32: CCC(CO)Nc1ccn2nc(-c3ccccc3)cc2n1 (stereo not drawn)
33: C[C@@H]1CN([C@H](C)CO)C(=O)c2cc(C#CC3(O)CCCC3)cnc2O[C@@H]1CN(C)C(=O)C1CC1
34: C[C@H](CO)N1C[C@H](C)[C@@H](CN(C)C)Oc2ncc(-c3ccccc3F)cc2C1=O
35: Cc1ccc(C(=O)OCC(=O)c2ccccc2)cc1

Compound	31	32	33	34	35
PglD DTNB	0.4	3.6	·	3.8	-3.0
MITF act	·	·	·	·	64.0
Wnt act	2.4	-2.4	·	·	36.2*
Yeast UUG start	-12.8	-15.8	·	-6.5	-41.0
miR-122 sensor	2.6	6.5	-12.0[16.7 µM]	5.6[16.7 µM]	-3.5
esBAF inh	55.2*	69.2*	·	-2.2	7.5

36: O=C(O)c1ccc2c(c1)C(=O)N(c1ccc(C(=O)OCC(=O)c3ccccc3)cc1)C2=O
37: CCCOC(=O)c1ccc2c(c1)C(=O)N(c1ccccc1)C2=O
38: CCCOC(=O)CN1C(=O)c2ccc(C(=O)OCCC)cc2C1=O
39: C[C@@H]1CN([C@@H](C)CO)C(=O)Cc2cc(NC(=O)C3CCCCC3)ccc2O[C@H]1CN(C)C(=O)Nc1cccc2ccccc12
40: Nn1c(SCc2ccccc2)nc2ccccc21
41: COCCNCC(=O)N1c2ccccc2Sc2ccccc21
42: Cc1noc(C)c1S(=O)(=O)Nc1cccc2c1O[C@H](CN(C)S(=O)(=O)c1ccc(Cl)cc1)[C@H](C)CN([C@H](C)CO)C2=O
43: C=CCNC(=O)/C(C#N)=C/c1cn(-c2ccccc2)nc1-c1ccc(OC)c([N+](=O)[O-])c1

Compound	36	37	38	39	40	41	42	43
PglD DTNB	9.4	3.6	-2.3	-5.3	-0.9	-4.6	4.1	-2.8
MITF act	·	-4.3	-9.1	·	?	·	·	18.0
Wnt act	47.1*	·	·	·	27.8	48.3*	·	-9.8
Yeast UUG start	-7.6	-20.6	0.1	18.1	-20.4	-13.3	-7.1	1.5
miR-122 sensor	-1.9	0.3	·	-4.7[16.7 µM]	1.6	6.0	7.3[16.7 µM]	147.3*
esBAF inh	?	58.4*	-2.7	0.3	54.2*	-3.3	-1.8	·

Structures from the list above that have two or more sulfur atoms (two):
1: CC(C)CNS(=O)(=O)c1cc(C(=O)OCC(=O)N(C)C2CCS(=O)(=O)C2)c(Cl)cc1Cl (stereo not drawn)
42: Cc1noc(C)c1S(=O)(=O)Nc1cccc2c1O[C@H](CN(C)S(=O)(=O)c1ccc(Cl)cc1)[C@H](C)CN([C@H](C)CO)C2=O

Compound	1	42
PglD DTNB	1.8	4.1
MITF act	-1.2	·
Wnt act	53.2*	·
Yeast UUG start	-2.1	-7.1
miR-122 sensor	0.2	7.3[16.7 µM]
esBAF inh	-8.7	-1.8
